ChEMBL document CHEMBL1126295, “p-(Methylsulfinyl)phenyl nitrogen mustard as a novel bioreductive prodrug selective against hypoxic tumors” (1992)

Legend:
CHO [1] = experiment: The compound was evaluated for the cytotoxicity against CHO cells under normal aerobic condition.
Mus musculus = species: Mus musculus; experiment: The compound was evaluated for the cytotoxicity against BALB/c 3T3 mouse fibroblasts
B16-F10 = experiment: The compound was evaluated for the cytotoxicity against B16-F10 murine melanoma cells.
CHO [2] = experiment: The compound was evaluated for the cytotoxicity against CHO cells under hypoxic condition.

SMILES | IC50 (CHO [1]) | IC50 (Mus musculus) | IC50 (B16-F10) | IC50 (CHO [2])
CSc1ccc(N(CCCl)CCCl)cc1 | 3.5 µM | 1.2 µM | 11.7 µM | 
C[S+]([O-])c1ccc(N(CCCl)CCCl)cc1 (stereo unspecified) |  | 18.7 µM |  | 90 µM
CS(=O)(=O)c1ccc(N(CCCl)CCCl)cc1 |  | 100 µM |  | 
